Literature values in US20040072205A1, “Methods for treating neuronal disorders” (priority 2002, published 2004).

System: human patients with ALS
Details: cited from earlier work

**Q.** With `Nc1nc2ccc(OC(F)(F)F)cc2s1` [riluzole] as the compound, how does the extension of survival read?
**A.** approximately three
